The subject of the assay is LIF-overexpressing MCF-7 (MCF-7 LIF) human breast cancer cells. The assay can be described thus: LIF specificity assay, cytotoxicity. Type of assay: cell-based. To be noted: cytotoxicity MCF-7 vs. MCF-7 LIF (specificity towards LIF).

`C#CC(F)(F)[C@]1(O)CCC2C3CCC4=CC(=O)CCC4=C3C(c3ccc(C4CC4)cc3)C[C@@]21C` (stereo partly drawn) [EC330, 17α-(1,1-difluoro-2-propyn-1-yl)-17β-hydroxy-11β-[4-p-(cyclopropyl)phenyl]estra-4,9-dien-3-one]: the “Fold Change” value came out at 3.

The record behind these values is patent US20200087340A1, “LIF/LIFR ANTAGONIST IN ONCOLOGY AND NONMALIGNANT DISEASES” (Evestra, Inc., priority 2018, published 2020).
